Results as given in patent publication US20260285845A1, “INHIBITOR OF COMPLEMENT FACTOR B” (NANJING CHIA TAI TIANQING PHARMACEUTICAL CO., LTD., priority 2023, published 2026).

System: collagen antibody and lipopolysaccharide-induced arthritis (CAIA)
Test: Collagen antibody-induced mouse arthritis model (Experimental Example 4)
Format: in vivo, BALB/c mice
Conditions: Day3; 20 mg/kg oral, twice a day
Protocol: The data were analyzed by One-way ANOVA/Dunnett's using Graphpad Prism and by Repeat Measurement ANOVA/Bonferroni using SPSS.
Arthritis scoring: Starting from the day of modeling, the incidence of arthritis in the limbs of the animals in each group was observed three times a week until the end of the experiment. According to the different degrees of lesions (erythema and swelling), the scoring was carried out according to the standard of 0-4 points.
Joint swelling: Starting from the day of modeling, the thickness of the left and right foot pads of the animals was measured three times a week using a micrometer (Mitutoyo, 0-25 mm, minimal 0.001 mm) until the end of the experiment.

CCO[C@H]1CCN(Cc2c(OC)cc(C)c3[nH]ccc23)[C@H](c2ccc(C(=O)O)cc2)C1 [LNP023]
Thickness of foot pads (mm), Mean: 1.614 mm
